Amino acid sequences for entries named in this document (tags omitted).
UniProt P35372, whole entry: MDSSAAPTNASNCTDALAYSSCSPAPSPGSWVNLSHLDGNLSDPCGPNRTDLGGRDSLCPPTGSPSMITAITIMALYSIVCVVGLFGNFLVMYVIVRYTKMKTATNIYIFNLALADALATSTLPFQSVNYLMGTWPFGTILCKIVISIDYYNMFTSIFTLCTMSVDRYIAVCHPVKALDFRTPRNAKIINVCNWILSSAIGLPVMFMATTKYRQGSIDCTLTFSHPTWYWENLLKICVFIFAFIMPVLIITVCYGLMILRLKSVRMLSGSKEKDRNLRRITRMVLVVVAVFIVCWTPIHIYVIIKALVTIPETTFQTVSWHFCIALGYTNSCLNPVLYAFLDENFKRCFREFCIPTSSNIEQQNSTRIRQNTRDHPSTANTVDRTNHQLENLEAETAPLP

According to US8026252B2 (priority 2005, dated 2011):

Molecular target: T1, human μ opioid receptor (Homo sapiens, UniProt P35372)
T1 construct: expressed in transfected cells
Assay: biochemical
Format: binding
Conditions: [3H]DAMGO (μ)

Question: Which Ki does the source give for Oc1ccc2c3c1O[C@H]1c4[nH]c5ccccc5c4C[C@@]4(O)[C@@H](C2)N(CC2CC2)CC[C@]314 [Example 72, naltrindole, reference compound] here?
Answer: 0.013 ± 0.0011 µM
